Consider 2 substances from paper PMC11440508, “Dually Labeled Neurotensin NTS1R Ligands for Probing Radiochemical and Fluorescence-Based Binding Assays” (Journal of Medicinal Chemistry, 2024).

By UniProt entry, the sequences of proteins in these tests, tags left out. Where a name states a change or a piece, a line headed by the entry shows the natural chain unless it says otherwise.
UniProt P30989, whole entry: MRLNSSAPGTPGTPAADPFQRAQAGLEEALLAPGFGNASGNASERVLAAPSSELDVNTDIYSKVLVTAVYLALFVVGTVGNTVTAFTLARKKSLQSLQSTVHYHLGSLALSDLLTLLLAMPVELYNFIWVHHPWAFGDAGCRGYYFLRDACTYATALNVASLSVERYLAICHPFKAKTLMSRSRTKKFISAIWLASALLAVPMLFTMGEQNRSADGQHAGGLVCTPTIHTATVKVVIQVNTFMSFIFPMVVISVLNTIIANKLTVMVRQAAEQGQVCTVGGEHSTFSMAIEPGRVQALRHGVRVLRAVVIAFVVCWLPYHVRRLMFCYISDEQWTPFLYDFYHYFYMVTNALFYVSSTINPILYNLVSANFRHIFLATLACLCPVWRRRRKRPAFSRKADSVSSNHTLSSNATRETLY
UniProt O95665: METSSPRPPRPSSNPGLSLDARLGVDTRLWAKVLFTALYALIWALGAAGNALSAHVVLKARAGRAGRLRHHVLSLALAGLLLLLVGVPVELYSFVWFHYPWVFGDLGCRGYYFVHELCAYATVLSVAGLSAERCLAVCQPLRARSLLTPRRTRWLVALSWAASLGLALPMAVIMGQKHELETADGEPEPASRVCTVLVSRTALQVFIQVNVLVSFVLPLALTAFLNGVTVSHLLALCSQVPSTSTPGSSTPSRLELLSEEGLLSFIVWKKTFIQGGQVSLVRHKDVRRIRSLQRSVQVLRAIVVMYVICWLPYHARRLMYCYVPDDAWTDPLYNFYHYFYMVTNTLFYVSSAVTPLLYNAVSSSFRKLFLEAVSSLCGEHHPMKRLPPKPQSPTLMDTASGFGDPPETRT

The target in assay [1] is NTS1R (Homo sapiens) (UniProt P30989). To be noted: cited from earlier work.
The target in assay [2] is human neurotensin receptor type 2 (hNTS2R) in homogenates of HEK293T cells (human) (UniProt O95665). Nature of the assay: radioligand binding; competition with [^3H]UR-MK300 at homogenates of HEK293T cells transiently transfected with hNTS2R; Tris buffer (50 mM Tris HCl, 1 mM EDTA, pH 7.4) with 0.1% BSA.

Regarding NT(8–13) 8-13 (from UniProt P30990), in assay [1], the inhibition constant Ki (in general, the dissociation constant of the complex between target and ligand, obtained from inhibition or displacement) was 0.29 nM.
Take NT(8–13) (peptide): in assay [2], the Ki was 0.62 nM.
